From ChEMBL document CHEMBL1157356, “Discovery of pyrrolopyridine-pyridone based inhibitors of Met kinase: synthesis, X-ray crystallographic analysis, and biological activities” (J Med Chem, 2008)

Sequences of proteins named here, by UniProt entry; tags and fusion partners are left off. A change or cut given only in a name is not applied to a line headed by its entry.
UniProt P08581: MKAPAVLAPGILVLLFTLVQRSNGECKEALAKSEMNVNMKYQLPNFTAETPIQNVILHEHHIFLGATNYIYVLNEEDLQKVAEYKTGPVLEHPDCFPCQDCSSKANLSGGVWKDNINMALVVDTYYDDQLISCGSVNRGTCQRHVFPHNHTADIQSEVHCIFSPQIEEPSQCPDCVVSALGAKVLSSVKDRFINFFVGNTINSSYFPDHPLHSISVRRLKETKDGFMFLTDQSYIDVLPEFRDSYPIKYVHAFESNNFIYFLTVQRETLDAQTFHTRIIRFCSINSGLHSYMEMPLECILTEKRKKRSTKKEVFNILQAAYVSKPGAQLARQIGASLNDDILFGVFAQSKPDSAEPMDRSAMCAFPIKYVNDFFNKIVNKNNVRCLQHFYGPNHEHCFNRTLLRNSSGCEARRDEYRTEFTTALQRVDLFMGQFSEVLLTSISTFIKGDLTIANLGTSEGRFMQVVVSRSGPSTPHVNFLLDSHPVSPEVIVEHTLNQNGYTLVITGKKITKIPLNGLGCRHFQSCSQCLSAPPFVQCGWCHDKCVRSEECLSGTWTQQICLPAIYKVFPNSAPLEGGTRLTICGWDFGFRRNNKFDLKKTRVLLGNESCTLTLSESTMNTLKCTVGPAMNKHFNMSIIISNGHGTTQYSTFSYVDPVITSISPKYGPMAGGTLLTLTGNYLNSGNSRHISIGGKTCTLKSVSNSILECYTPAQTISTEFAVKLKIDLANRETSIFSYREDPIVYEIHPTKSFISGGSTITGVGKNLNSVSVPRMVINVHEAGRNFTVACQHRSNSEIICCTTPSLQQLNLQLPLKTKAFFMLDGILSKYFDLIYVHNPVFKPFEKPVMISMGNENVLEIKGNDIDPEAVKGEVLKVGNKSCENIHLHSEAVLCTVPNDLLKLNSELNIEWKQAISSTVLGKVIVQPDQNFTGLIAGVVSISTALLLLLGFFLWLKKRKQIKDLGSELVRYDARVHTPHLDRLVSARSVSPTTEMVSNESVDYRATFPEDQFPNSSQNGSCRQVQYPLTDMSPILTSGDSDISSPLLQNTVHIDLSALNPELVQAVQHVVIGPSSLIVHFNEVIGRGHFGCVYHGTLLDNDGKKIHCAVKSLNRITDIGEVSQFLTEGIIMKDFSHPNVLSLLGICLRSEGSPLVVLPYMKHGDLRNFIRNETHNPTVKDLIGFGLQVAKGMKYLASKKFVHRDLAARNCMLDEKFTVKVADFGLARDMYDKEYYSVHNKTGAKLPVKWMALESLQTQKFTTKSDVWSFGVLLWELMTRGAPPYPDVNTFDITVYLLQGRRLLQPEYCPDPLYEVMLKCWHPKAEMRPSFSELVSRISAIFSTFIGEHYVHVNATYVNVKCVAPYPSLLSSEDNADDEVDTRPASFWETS

Target: Hepatocyte growth factor receptor (Homo sapiens, UniProt P08581)
Assay: Inhibition of MET

O=C(Nc1ccc(Oc2ccnc3[nH]ccc23)c(F)c1)c1cccn(-c2ccc(F)cc2)c1=O
IC50: 1.8 nM
